pIC50: −log10 of the molar value.

Sequences of proteins named here, by UniProt entry; tags and fusion partners are left off. Residues count along the entry.
UniProt P06493, whole entry: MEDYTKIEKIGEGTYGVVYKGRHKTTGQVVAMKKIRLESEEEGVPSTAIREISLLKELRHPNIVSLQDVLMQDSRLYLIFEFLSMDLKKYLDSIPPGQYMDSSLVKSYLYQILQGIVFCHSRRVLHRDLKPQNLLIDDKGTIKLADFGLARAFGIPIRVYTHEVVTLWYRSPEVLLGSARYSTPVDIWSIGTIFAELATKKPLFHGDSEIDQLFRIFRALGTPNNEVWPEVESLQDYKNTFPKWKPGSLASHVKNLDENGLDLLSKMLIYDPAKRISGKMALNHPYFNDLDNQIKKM
UniProt P35968, 20-1356: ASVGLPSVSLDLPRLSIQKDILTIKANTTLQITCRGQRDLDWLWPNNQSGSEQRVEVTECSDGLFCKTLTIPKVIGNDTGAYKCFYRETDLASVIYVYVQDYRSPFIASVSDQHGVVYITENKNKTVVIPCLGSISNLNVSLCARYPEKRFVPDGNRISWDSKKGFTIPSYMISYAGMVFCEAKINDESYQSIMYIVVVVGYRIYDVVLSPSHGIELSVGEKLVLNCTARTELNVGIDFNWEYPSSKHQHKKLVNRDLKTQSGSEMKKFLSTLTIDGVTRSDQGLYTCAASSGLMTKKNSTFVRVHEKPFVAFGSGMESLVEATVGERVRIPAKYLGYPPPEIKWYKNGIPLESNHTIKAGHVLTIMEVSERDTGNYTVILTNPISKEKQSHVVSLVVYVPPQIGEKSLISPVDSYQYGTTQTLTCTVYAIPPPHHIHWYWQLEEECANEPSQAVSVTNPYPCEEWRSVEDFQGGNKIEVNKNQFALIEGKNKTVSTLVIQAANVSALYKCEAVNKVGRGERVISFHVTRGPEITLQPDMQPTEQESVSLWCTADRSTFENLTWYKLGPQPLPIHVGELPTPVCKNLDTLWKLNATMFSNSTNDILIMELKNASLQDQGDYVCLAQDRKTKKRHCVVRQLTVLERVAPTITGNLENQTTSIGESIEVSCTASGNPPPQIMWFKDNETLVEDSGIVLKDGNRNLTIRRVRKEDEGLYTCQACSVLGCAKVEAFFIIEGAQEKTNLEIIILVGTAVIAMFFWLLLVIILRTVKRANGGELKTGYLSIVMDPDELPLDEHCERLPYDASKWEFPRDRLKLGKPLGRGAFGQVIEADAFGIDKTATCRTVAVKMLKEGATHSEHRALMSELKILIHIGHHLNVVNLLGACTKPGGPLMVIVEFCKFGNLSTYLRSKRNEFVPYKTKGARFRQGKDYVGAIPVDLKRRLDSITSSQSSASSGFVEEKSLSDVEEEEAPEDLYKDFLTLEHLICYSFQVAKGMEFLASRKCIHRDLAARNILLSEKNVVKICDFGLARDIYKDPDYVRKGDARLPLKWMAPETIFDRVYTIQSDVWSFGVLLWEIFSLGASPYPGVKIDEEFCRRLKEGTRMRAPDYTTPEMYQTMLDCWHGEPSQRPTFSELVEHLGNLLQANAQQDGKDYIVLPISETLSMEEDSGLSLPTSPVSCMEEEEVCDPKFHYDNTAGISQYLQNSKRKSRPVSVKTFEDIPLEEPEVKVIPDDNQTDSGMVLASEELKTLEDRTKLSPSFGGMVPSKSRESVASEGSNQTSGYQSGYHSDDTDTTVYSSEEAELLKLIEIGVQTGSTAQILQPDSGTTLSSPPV

In one experiment the target is T1, CDK1/CycB (Homo sapiens, UniProt P06493).
T1 construct: GST; purchased ProQinase GmbH, Freiburg; host or cells: baculovirus-infected insect cells (Sf9)
As to the kind of experiment: CDK1/CycB Kinase Assay. In kind it is biochemical. To be noted: CDK1/CycB IC50, histone IIIS substrate, 33P-ATP, 15 minutes at 22° C.
As to `C[C@H](CO)Nc1nc(Nc2ccc(S(C)(=O)=NS(=O)(=O)CC[Si](C)(C)C)cc2)ncc1Br` (mixture of isomers) [Example 2.1, (RS)-S-[4-({5-bromo-4-[(R)-(2-hydroxy-1-methylethyl)amino]pyrimidin-2-yl}amino)phenyl]-S-methyl-N-[2-(trimethylsilyl)ethylsulfonyl]sulfoximide], the pIC50 is < 6.00.

Still in this experiment, the particulars now being: histone IIIS substrate, 33P-ATP, 15 minutes at 22° C.; read-out: CDK1/CycB IC50.
On to `CCOC(=O)N=S(C)(=O)c1ccc(Nc2ncc(Br)c(N[C@H](COC)[C@@H](C)O)n2)cc1` (mixture of isomers) [Example 1.34, (RS)-S-{4-[(5-bromo-4-{[(1R,2R)-2-hydroxy-1-(methoxymethyl)propyl]amino}pyrimidin-2-yl)amino]phenyl}-N-(ethoxycarbonyl)-S-methyl sulfoximide], for which the pIC50 was 6.96.
Take `C[C@@H](O)[C@@H](C)Nc1nc(Nc2ccc(S(C)(=N)=O)cc2)ncc1Br` (mixture of isomers) [Example 1.44, (RS)-S-[4-({5-bromo-4-[(1R,2R)-(2-hydroxy-1-methylpropyl)amino]pyrimidin-2-yl}amino)phenyl]-S-methyl sulfoximide]: the pIC50 is 8.30.
On the same count and under the same terms, for `CCS(=N)(=O)c1ccc(Nc2ncc(Br)c(N[C@H](COC)[C@@H](C)O)n2)cc1` (mixture of isomers) [Example 1.48, (RS)-S-{4-[(5-bromo-4-{[(1R,2R)-2-hydroxy-1-(methoxymethyl)-propyl]amino}pyrimidin-2-yl)amino]phenyl}-S-ethyl sulfoximide] the value was 7.80; for `CCS(=N)(=O)c1ccc(Nc2ncc(Br)c(N[C@H](COC)[C@@H](C)O)n2)cc1` (mixture of isomers) [Example 1.50, (RS)-S-{4-[(5-bromo-4-{[(1R,2R)-2-hydroxy-1-(methoxymethyl)-propyl]amino}pyrimidin-2-yl)amino]phenyl}-S-ethyl sulfoximide], 7.36.
Still for that read-out and setting: the same measure for `CCS(=N)(=O)c1ccc(Nc2ncc(Br)c(N[C@H](C)C(C)(C)O)n2)cc1` (mixture of isomers) [Example 1.54, (RS)-S-[4-({5-bromo-4-[(R)-(2-hydroxy-1,2-dimethylpropyl)amino]pyrimidin-2-yl}amino)phenyl]-S-ethyl sulfoximide]: 8.10; for `CCS(=N)(=O)c1ccc(Nc2ncc(Br)c(N[C@H](C)C(C)(C)O)n2)cc1` (mixture of isomers) [Example 1.55, (RS)-S-[4-({5-bromo-4-[(R)-(2-hydroxy-1,2-dimethylpropyl)amino]pyrimidin-2-yl}amino)phenyl]-S-ethyl sulfoximide]: 7.35.
Same read-out and setting: for `Cc1cc(Nc2ncc(Br)c(N[C@H](C)C(C)(C)O)n2)ccc1S(C)(=N)=O` (mixture of isomers) [Example 1.59, (RS)-S-[4-({5-bromo-4-[(R)-(2-hydroxy-1,2-dimethylpropyl)amino]pyrimidin-2-yl}amino)-2-methylphenyl]-S-methyl sulfoximide] the value was 8.05.

The target of the next experiment is T2, CDK2/CycE (Homo sapiens, UniProt P24941).
T2 construct: GST; purchased ProQinase GmbH, Freiburg; host or cells: baculovirus-infected insect cells (Sf9)
As to the kind of experiment: CDK2/CycE Kinase Assay. It counts as biochemical. Conditions: histone IIIS substrate, 33P-ATP, 15 minutes at 22° C.
As to `C[C@@H](O)[C@@H](C)Oc1nc(Nc2ccc(S(C)(=N)=O)cc2)ncc1Br` (mixture of isomers) [Example 1.4, (RS)-S-[4-({5-bromo-4-[(1R,2R)-2-hydroxy-1-methylpropoxy]pyrimidin-2-yl}amino)phenyl]-S-methyl sulfoximide], the pIC50 was 8.00.
On the same count and under the same terms, the same measure for `COc1cc(Nc2ncc(Br)c(O[C@H](C)[C@@H](C)O)n2)ccc1S(C)(=N)=O` (mixture of isomers) [Example 1.24, (RS)-S-[4-({5-bromo-4-[(1R,2R)-2-hydroxy-1-methylpropoxy]pyrimidin-2-yl}amino)-2-methoxyphenyl]-S-methyl sulfoximide]: 8.10; for `CCOC(=O)N=S(=O)(CC)c1ccc(Nc2ncc(Br)c(N[C@H](COC)[C@@H](C)O)n2)cc1` (mixture of isomers) [Example 1.33, (RS)-S-{4-[(5-bromo-4-{[(1R,2R)-2-hydroxy-1-(methoxymethyl)propyl]amino}pyrimidin-2-yl)amino]phenyl}-N-(ethoxycarbonyl)-S-ethyl sulfoximide]: 7.29; for `CCS(=N)(=O)c1ccc(Nc2ncc(Br)c(N[C@H](COC)[C@@H](C)O)n2)cc1` (mixture of isomers) [Example 1.48, (RS)-S-{4-[(5-bromo-4-{[(1R,2R)-2-hydroxy-1-(methoxymethyl)-propyl]amino}pyrimidin-2-yl)amino]phenyl}-S-ethyl sulfoximide]: 8.15.
On the same count and under the same terms, for `COc1cc(Nc2ncc(Br)c(N[C@H](C)[C@@H](C)O)n2)ccc1S(C)(=N)=O` (single isomer, unassigned) [Example 1.25] the value was 8.52.

A further experiment addresses T3, VEGF receptor tyrosine kinase-2 (Homo sapiens, UniProt P35968).
T3 construct: GST; made in house; host or cells: baculovirus-infected insect cells (Sf9)
Kind of experiment: VEGF Receptor-2 Kinase Assay. It counts as biochemical. Conditions: poly-(Glu4Tyr) substrate, 33P-ATP, 10 minutes at 22° C.; read-out: VEGF-R2 IC50.
For `CN=S(C)(=O)c1ccc(Nc2ncc(Br)c(N[C@H](C)[C@@H](C)O)n2)cc1` (mixture of isomers) [Example 1.28, (RS)-S-[4-({5-bromo-4-[(1R,2R)-(2-hydroxy-1-methylpropyl)amino]pyrimidin-2-yl}amino)phenyl]-N,S-dimethyl-sulfoximide], the pIC50 was 7.43.
For the molecule `CN=S(C)(=O)c1ccc(Nc2ncc(Br)c(N[C@H](C)[C@@H](C)O)n2)cc1` (mixture of isomers) [Example 1.29, (RS)-S-[4-({5-bromo-4-[(1R,2R)-(2-hydroxy-1-methylpropyl)amino]pyrimidin-2-yl}amino)phenyl]-N,S-dimethyl-sulfoximide], the pIC50 was 7.80.
Still for that read-out and setting: the same measure for `CN=S(C)(=O)c1ccc(Nc2ncc(Br)c(N[C@H](C)[C@@H](C)O)n2)cc1` (mixture of isomers) [Example 1.30, (RS)-S-[4-({5-bromo-4-[(1R,2R)-(2-hydroxy-1-methylpropyl)amino]pyrimidin-2-yl}amino)phenyl]-N,S-dimethyl-sulfoximide]: 7.54; for `CCOC(=O)N=S(=O)(CC)c1ccc(Nc2ncc(Br)c(O[C@H](C)[C@@H](C)O)n2)cc1` (mixture of isomers) [Example 1.39, (RS)-S-[4-({5-bromo-4-[(1R,2R)-2-hydroxy-1-methylpropoxy]pyrimidin-2-yl}amino)phenyl]-N-(ethoxycarbonyl)-S-ethyl sulfoximide]: 6.82; for `COC[C@@H](Nc1nc(Nc2ccc(S(C)(=N)=O)cc2)ncc1Br)[C@@H](C)O` (mixture of isomers) [Example 1.47, (RS)-S-{4-[(5-bromo-4-{[(1R,2R)-2-hydroxy-1-(methoxymethyl)-propyl]amino}pyrimidin-2-yl)amino]phenyl}-S-methyl sulfoximide]: 6.52.
As for `CCS(=N)(=O)c1ccc(Nc2ncc(Br)c(N[C@H](C)C(C)(C)O)n2)cc1` (mixture of isomers) [Example 1.56, (RS)-S-[4-({5-bromo-4-[(R)-(2-hydroxy-1,2-dimethylpropyl)amino]pyrimidin-2-yl}amino)phenyl]-S-ethyl sulfoximide], the pIC50 is 7.49.
Turning to `COc1cc(Nc2ncc(Br)c(N[C@H](C)[C@@H](C)O)n2)ccc1S(C)(=N)=O` (single isomer, unassigned) [Example 1.25], the pIC50 is 7.15.

These data come from patent publication US7338958B2, “Sulfoximine-substituted pyrimidines as CDK-and/or VEGF inhibitors, their production and use as pharmaceutical agents” (Schering AG, priority 2003, dated 2008).
